Publication PMC12582325 (Proceedings of the National Academy of Sciences of the …, 2025)
“And” between values parts separate entries of the source, which are not always exact repeats. Equal values may be shown once. Read-outs that look alike come from different tables or passages of the source.

Experiments:
Fg.Ste2 [1] = format: cell-based, Fusarium graminearum; conditions: Fg.Ste2 biosensor CPK366; 10 μM synthetic alpha pheromone; normalized to yEGFP background (receptor without pheromone); four biological replicates; Fig. 1E
Fo.Ste2 [2] = format: cell-based, Fusarium oxysporum
Bb.Ste2 [3] = format: cell-based, Beauveria bassiana
Bc.Ste2 [4] = format: cell-based, Botrytis cinerea
Bc.Ste2 [5] = format: cell-based, Botrytis cinerea; remark: listed apart in the source
Hj Ste2 GPCR (Hj.Hpr2) = format: cell-based, Hypocrea jecorina
Bc.Ste2 [6] = format: cell-based, Botrytis cinerea; remark: listed apart in the source
Mo Ste2 GPCR = format: cell-based, Magnaporthe oryzae; conditions: Fig. 1D mating matrix; pheromone secreted by MATa strain, GPCR in MATα strain; deep well plate, 20 h coculture; three technical plating replicates
Nc Ste2 GPCR = format: cell-based, Neurospora crassa
[7] = tested on: empty (strain lacking a GPCR); format: cell-based, Saccharomyces cerevisiae; conditions: Fig. 1D mating matrix; pheromone secreted by MATa strain, MATα strain lacking a GPCR (empty); deep well plate, 20 h coculture
Bb.Ste2 [8] = format: cell-based, Beauveria bassiana; conditions: YPL1 library cocultured with Bb.Ste2 strain GEN88, 20 h, 2 d diploid enrichment, NextSeq 500
Fo.Ste2 [9] = format: cell-based, Fusarium oxysporum; remark: listed apart in the source
Fg.Ste2 [10] = tested on: Fg.Ste2
Hj.Hpr2 = format: cell-based, Hypocrea jecorina
[11] = tested on: no_GPCR (negative control lacking a GPCR); format: cell-based, Saccharomyces cerevisiae
B. bassiana = format: cell-based, Beauveria bassiana
[12] = tested on: F. oxysporum microconidia; test: Germination of F. oxysporum microconidia; format: cell-based, Fusarium oxysporum f. sp. lycopersici 4287; parameters: Germination of F. oxysporum microconidia (data of Sup.Fig.10): unit not given here; conditions: for Germination of F. oxysporum microconidia (data of Sup.Fig.10): 400 μM pheromone, 13 h, at least 300 spores counted
Description: For F. oxysporum microconidia production, the strain was grown for 3 to 4 d in liquid potato dextrose broth (PDB) at 28 °C and 170 rpm. Germination media ([10]) was used for assessing the spore germination. RE was prepared by removing 2-wk-old tomato plants from vermiculite and washing the roots to remove any adhering substrates ([11]).
Supplementary Figure 10. Germination of F. oxysporum microconidia after 13 h of incubation in Germination Media at a cell density of […] microconidia/mL. The assay was performed with 400 μM of pheromone. All points represent the average of three biological replicates in which at least 300 spores were counted. Statistical significance was determined through one-way analysis of variance (ANOVA) with Dunnett’s multiple comparisons (✱p ≤ 0.05).

F. oxysporum germ tubes = conditions: gradient of 400 μM pheromone against the solvent (50% methanol); 13 h; water-agar; three biological replicates; Fig. 5A

SMILES: CSCC[C@H](NC(=O)[C@H](CS)NC(=O)[C@@H](N)Cc1c[nH]c2ccccc12)C(=O)N[C@@H](CCCNC(=N)N)C(=O)N1CCC[C@H]1C(=O)NCC(=O)N[C@@H](CCC(N)=O)C(=O)N1CCC[C@H]1C(=O)N[C@@H](CS)C(=O)N[C@@H](Cc1c[nH]c2ccccc12)C(=O)O [Bb]
- Fold change yEGFP (Fg.Ste2 [1]): 3
- Activation of Fo.Ste2 biosensor, in words (Fo.Ste2 [2]): strong activation
- Fold change yEGFP (Fo.Ste2 [2]): 204
- Fold change yEGFP (Bb.Ste2 [3]): 194
- logEC50 (Bb.Ste2 [3]): -9.649
- Sup.Fig.3B Bb.Ste2 biosensor response, group mean (Bb.Ste2 [3]; 0.0005 μM): 1097500
- EC50 (Bb.Ste2 [3]; read-out: half-maximal effective concentration (EC50)): 0.245 nM
- Fold change yEGFP (Bc.Ste2 [4]): 24
- Effect on activation of Bc.Ste2 by Bc pheromone, in words (Bc.Ste2 [5]; 0.0005 μM Bc pheromone in combination with 10 μM peptide, four biological replicates, Fig. 2G): completely abolished
- Bc.Ste2 + pheromones, biosensor response, group mean (Bc.Ste2 [5]; Bc + the named peptide, Bc alone mean 134.8, mean of n = 4): 1.214
- Diploid frequency (%) (Hj Ste2 GPCR (Hj.Hpr2)): 0.0%
- Diploid frequency (%) (Bc.Ste2 [6]): 0.1%
- diploid frequency (%) (Bc.Ste2 [6]): 0.19% and 0.1%
- Diploid frequency (%) (Mo Ste2 GPCR): 0.0%
- Diploid frequency (%) (Nc Ste2 GPCR): 0.0%
- Diploid frequency (%) [7]: 0.1%
- Enrichment after mating, reads per million minus library before coculture (Bb.Ste2 [8]): +307 RPM
- diploid barcode qPCR signal relative to control (2^-dCt) (Fo.Ste2 [9]): 0.011 and 0.012
- diploid barcode qPCR signal relative to control (2^-dCt) (Fg.Ste2 [10]; section A4, (GPCR strain) Fg, mean of Bio1-3): 0.001
- diploid barcode qPCR signal relative to control (2^-dCt) (Fg.Ste2 [10]; section A4, column Fg, replicate Bio1): 0.004
- diploid barcode qPCR signal relative to control (2^-dCt) (Fg.Ste2 [10]; section A4, column Fg, replicate Bio2): 0
- diploid barcode qPCR signal relative to control (2^-dCt) (Fg.Ste2 [10]; section A4, column Fg, replicate Bio3): 0
- diploid barcode qPCR signal relative to control (2^-dCt) (Fg.Ste2 [10]; section Cm, (GPCR strain) Fg, mean of Bio1-3): 0.034
- diploid barcode qPCR signal relative to control (2^-dCt) (Fg.Ste2 [10]; section Cm, column Fg, replicate Bio1): 0.032
- diploid barcode qPCR signal relative to control (2^-dCt) (Fg.Ste2 [10]; section Cm, column Fg, replicate Bio2): 0.042
- diploid barcode qPCR signal relative to control (2^-dCt) (Fg.Ste2 [10]; section Cm, column Fg, replicate Bio3): 0.028
- diploid barcode qPCR signal relative to control (2^-dCt) (Fg.Ste2 [10]; section SC, (GPCR strain) Fg, mean of Bio1-3): 0.0092
- diploid barcode qPCR signal relative to control (2^-dCt) (Fg.Ste2 [10]; section SC, column Fg, replicate Bio1): 0.012
- diploid barcode qPCR signal relative to control (2^-dCt) (Fg.Ste2 [10]; section SC, column Fg, replicate Bio2): 0.009
- diploid barcode qPCR signal relative to control (2^-dCt) (Fg.Ste2 [10]; section SC, column Fg, replicate Bio3): 0.006
- diploid barcode qPCR signal relative to control (2^-dCt) (Fg.Ste2 [10]; section Scramble, (GPCR strain) Fg, mean of Bio1-3): 0.0111
- diploid barcode qPCR signal relative to control (2^-dCt) (Fg.Ste2 [10]; section Scramble, column Fg, replicate Bio1): 0.009
- diploid barcode qPCR signal relative to control (2^-dCt) (Fg.Ste2 [10]; section Scramble, column Fg, replicate Bio2): 0.008
- diploid barcode qPCR signal relative to control (2^-dCt) (Fg.Ste2 [10]; section Scramble, column Fg, replicate Bio3): 0.016
- diploid barcode qPCR signal relative to control (2^-dCt) (Hj.Hpr2): 0
- diploid barcode qPCR signal relative to control (2^-dCt) ([11]; section A4, GPCR strain not given, mean of Bio1-3): 0.035
- diploid barcode qPCR signal relative to control (2^-dCt) ([11]; section A4, column EMPTY, replicate Bio1): 0.013
- diploid barcode qPCR signal relative to control (2^-dCt) ([11]; section A4, column EMPTY, replicate Bio2): 0.091
- diploid barcode qPCR signal relative to control (2^-dCt) ([11]; section A4, column EMPTY, replicate Bio3): 0
- diploid barcode qPCR signal relative to control (2^-dCt) ([11]; section Cm, GPCR strain not given, mean of Bio1-3): 0.002
- diploid barcode qPCR signal relative to control (2^-dCt) ([11]; section Cm, column EMPTY, replicate Bio1): 0
- diploid barcode qPCR signal relative to control (2^-dCt) ([11]; section Cm, column EMPTY, replicate Bio2): 0
- diploid barcode qPCR signal relative to control (2^-dCt) ([11]; section Cm, column EMPTY, replicate Bio3): 0.005
- diploid barcode qPCR signal relative to control (2^-dCt) ([11]; section SC, GPCR strain not given, mean of Bio1-3): 0.0013
- diploid barcode qPCR signal relative to control (2^-dCt) ([11]; section SC, column EMPTY, replicate Bio1): 0
- diploid barcode qPCR signal relative to control (2^-dCt) ([11]; section SC, column EMPTY, replicate Bio2): 0
- diploid barcode qPCR signal relative to control (2^-dCt) ([11]; section SC, column EMPTY, replicate Bio3): 0.004
- diploid barcode qPCR signal relative to control (2^-dCt) ([11]; section Scramble, GPCR strain not given, mean of Bio1-3): 0.0007
- diploid barcode qPCR signal relative to control (2^-dCt) ([11]; section Scramble, column EMPTY, replicate Bio1): 0.002
- diploid barcode qPCR signal relative to control (2^-dCt) ([11]; section Scramble, column EMPTY, replicate Bio2): 0
- diploid barcode qPCR signal relative to control (2^-dCt) ([11]; section Scramble, column EMPTY, replicate Bio3): 0
- Chemotropism of spores, group mean (B. bassiana): 9.26
- chem. Index (B. bassiana): 7.14 and 7.87 and 12.77
- Chemotropic response in Bb germ tubes (B. bassiana; 20 hours): significant chemotropic response
- Germination of F. oxysporum microconidia (data of Sup.Fig.10) ([12]; biological replicate 1 (first line)): 15,55
- Germination of F. oxysporum microconidia (data of Sup.Fig.10) ([12]; biological replicate 2 (second line)): 26,45
- Germination of F. oxysporum microconidia (data of Sup.Fig.10) ([12]; biological replicate 3 (third line)): 18,65
- Mean Diff, Solvent vs. peptide ([12]; Sup.Fig.10, Dunnett's multiple comparisons test, n = 3): 23,55
- Mean 2 (peptide), germination ([12]; Sup.Fig.10, Solvent control mean 43,77, mean of n = 3): 20,22
- Effect on F. oxysporum microconidia germination, in words ([12]; exogenous addition of 400 μM peptide, 13 h in Germination Media, 3.2 x 106 microconidia/mL): significant reduction
- Chemotropic response in F. oxysporum germ tubes (F. oxysporum germ tubes): did not
